Shown are actives, neighbours in structure and some others; about 2.3% of the full set was active somewhere.
Yeast UUG start – alters start codon recognition fidelity in yeast | S. cerevisiae UUG-firefly luciferase reporter, luminescence/redox ratio | activity score, % at 18.7 µM | 350,000 compounds, 0.13% hits | AID 602363;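 active = replicate mean at a twofold rise or more, about +100% in these data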;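 note: firefly luciferase made from a UUG start codon reports start codon fidelity; reporter light over untreated wells divided by growth signal over untreated wells; some hits fall short of that in this replicate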
MC4R antagonist – antagonists of human melanocortin 4 receptor (MC4R) | P32245 | MC4R-expressing cells, MTII-stimulated cAMP, LANCE TR-FRET | inhibition, % at 6.5 µM | 360,000 compounds, 0.48% hits;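 active = inhibition above its plate's cutoff, the mean of tested wells on that plate plus 3 SD, cut at about 29% in these data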;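 also: 0% = Melanotan II alone and 100% = Melanotan II plus saturating MCL0020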
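Material: U2OS-MC4R stable cell line | Reagent: Melanotan II challenge after compound preincubation | Doses: One concentration, 6.5 µM nominal | Incubation: 30-min compound preincubation, 1-h Melanotan II challenge, 1-h detection, room temperature | Signal: TR-FRET cAMP assay | Replicates: One well per compound, no replicates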
ASAP1 GAP inh – blocks human ASAP1-stimulated Arf1 GTP hydrolysis | inhibition, % at 16.5 µM | Q9ULH1 | 360,000 compounds, 0.19% hits | AID 624377 | GDP FP detection; in the data active = inhibition above about 25%;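 also: 0% = vehicle with enzyme and substrate and 100% = no enzyme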
MC4R ag barr – agonists of human melanocortin 4 receptor (MC4R) beta-arrestin. U2OS MC4R beta-arrestin complementation, luminescence; percent of melanotan II response, DMSO zero. P32245. activation, % at 8.9 µM. 360,000 compounds, 0.98% hits;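 active = activation above a per-plate cutoff, the mean activation of sample wells on that plate plus 3 SD, cut at about 8% in these data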
CendR NRP1 mod – modulators of CendR peptide binding to human neuropilin-1; O14786; FAM-RPARPAR peptide binding to NRP-1, fluorescence polarization; inhibition, % at 25 µM; 360,000 compounds, 0.85% hits; AID 602438;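 active = inhibition or corrected inhibition above about 18%, plus a signal ratio from 0.5 to 1.5, limit read from the data, passing the limit was not always enough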
ARFGAP1 inhibitor – inhibitors of rat ARFGAP1 | Q62848 | Arfgap1-stimulated ARF1 GTP hydrolysis, GDP FP detection | inhibition, % at 16.5 µM | 360,000 compounds, 0.26% hits | AID 651572;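 active = inhibition above a per-plate limit, mean inhibition of low control wells plus 3 SD, cut at about 25% in these data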;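 also: 0% = DMSO wells with enzyme and 100% = wells lacking Arfgap1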
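Material: rat Arfgap1 GAP domain (His6, aa 1-136), purified enzyme. Also added: human ARF1(Δ1-17)-GTP substrate. Compound dosing: 16.5 µM single point, 1.26% DMSO. Timing: enzyme reaction 120 min at 25 °C after 20 min preincubation. Signal: GDP detection by fluorescence polarization. Read-out basis: percent inhibition of GAP-stimulated GDP formation, scaled between DMSO and no-Arfgap1 medians.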
U2OS cAMP counter – U2OS forskolin cAMP inhibition counter-screen | 1,600 compounds, 26% hits | shares compounds with MC4R antagonist | parental U2OS, LANCE TR-FRET | inhibition, % at 6.5 µM | AID 602193;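 active = mean inhibition over triplicates above the low-control well mean plus 3 SD, set per campaign, cut at about 13% in these data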;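 also: signal is single emission at 671 nm which falls as cellular cAMP rises; 0% = forskolin-stimulated wells and 100% = buffer without forskolin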
MC4R cAMP antag – human MC4R cAMP antagonism confirmation; shares compounds with MC4R antagonist; MC4R-expressing cells, MTII-stimulated cAMP, TR-FRET; inhibition, % at 6.5 µM; 1,600 compounds, 27% hits; in the data active = inhibition above about 29%;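 also: 0% = agonist stimulated wells alone and 100% = agonist stimulated wells plus saturating reference antagonist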
The depositor's hits bear a star; . = no result; + = active, no number.

item | SMILES | Yeast UUG start | MC4R antagonist | ASAP1 GAP inh | MC4R ag barr | CendR NRP1 mod | ARFGAP1 inhibitor | U2OS cAMP counter | MC4R cAMP antag
1 | CCOC(=O)c1sc(N2C(=O)C(O)=C(C(=O)c3ccc(C)o3)C2c2ccc(OC)c(OC)c2)nc1C (stereo unspecified) | 0 | 28 | 0 | -4 | -34 | -5 | . | .
2 | COC(=O)c1sc(N2C(=O)C(O)=C(C(=O)c3ccc(C)o3)C2c2ccc(OC)c(OC)c2)nc1C (stereo unspecified) | -10 | 188* | 15 | -3 | -26 | 6 | 0 | -16
3 | CCOc1ccc(C2C(C(=O)c3ccc(C)o3)=C(O)C(=O)N2c2nc(C)c(C(=O)OC)s2)cc1 (stereo unspecified) | -15 | + | 6 | 1 | -56 | -7 | 75* | 143*
4 | Cc1cc(C(=O)Nc2cccc3c2O[C@@H](CN(C)S(=O)(=O)c2ccc(Cl)cc2)[C@@H](C)CN([C@@H](C)CO)C3=O)n(C)n1 | -9 | . | . | . | . | . | . | .
5 | COc1ccc(CN2C(=O)c3ccccc3C2=O)cc1C(=O)O | -9 | 30* | 4 | 1 | 4 | 7 | 3 | -3
6 | CCc1cccc(CC)c1NC(=O)c1cc(CN2C(=O)c3ccccc3C2=O)ccc1OC | . | 10 | 2 | -1 | 0 | -7 | . | .
7 | COc1ccccc1-c1ccc([C@@H]2[C@@H](C#N)N(C(=O)C3CC3)[C@H]2CO)cc1 | -6 | . | . | . | . | . | . | .
8 | O=C1CCC(=O)N1CC1CC2CCC1C2 (stereo unspecified) | -15 | 37* | 4 | 0 | 11 | 7 | 1 | -2

The listing continues:
item | SMILES | Yeast UUG start | MC4R antagonist | ASAP1 GAP inh | MC4R ag barr | CendR NRP1 mod | ARFGAP1 inhibitor | U2OS cAMP counter | MC4R cAMP antag
9 | C[C@@H]1CCCCO[C@H](CN(C)C)[C@H](C)CN([C@H](C)CO)C(=O)c2cc(NC(=O)Nc3ccc4c(c3)OCO4)ccc2O1 | 10 | . | . | . | . | . | . | .
10 | COCc1cn(CC[C@H]2CC[C@H](NC(=O)Nc3ccc(Cl)cc3)[C@@H](CO)O2)nn1 | 4 | . | . | . | . | . | . | .
11 | CC1CCCN(c2nc(-c3cccnc3)nc3scc(-c4ccccc4)c23)C1 (stereo unspecified) | . | 37* | -5 | 0 | -25 | -1 | 0 | 21
12 | C[C@@H]1CN([C@@H](C)CO)C(=O)c2cc(/C=C/c3ccccc3)cnc2O[C@H]1CN(C)C(=O)c1cnccn1 | 3 | . | . | . | . | . | . | .
13 | Cc1noc(C)c1NC(=O)N(C)C[C@@H]1OCCCC[C@@H](C)Oc2ccc(NS(=O)(=O)c3c(C)noc3C)cc2C(=O)N([C@H](C)CO)C[C@@H]1C | -4 | . | . | . | . | . | . | .
14 | Cc1ccc(-c2nc3c(c(=O)[nH]c(=O)n3Cc3ccccc3)n2Cc2ccccc2)o1 | . | 9 | -3 | -2 | -12 | -8 | . | .
15 | CCn1c(CO)nc2c1c(=O)[nH]c(=O)n2Cc1ccccc1 | -2 | 31* | -8 | -2 | 2 | -3 | 0 | 2
16 | Cn1c(C2CCCCC2)nc2c1c(=O)[nH]c(=O)n2Cc1ccccc1 | . | 34* | 8 | -3 | 11 | -2 | 4 | 8

Ordered by the number under CendR NRP1 mod (highest first): three of the compounds above.
item | smiles | Yeast UUG start | MC4R antagonist | ASAP1 GAP inh | MC4R ag barr | CendR NRP1 mod | ARFGAP1 inhibitor | MC4R cAMP antag
16 | Cn1c(C2CCCCC2)nc2c1c(=O)[nH]c(=O)n2Cc1ccccc1 | . | 34* | 8 | -3 | 11 | -2 | 8
15 | CCn1c(CO)nc2c1c(=O)[nH]c(=O)n2Cc1ccccc1 | -2 | 31* | -8 | -2 | 2 | -3 | 2
14 | Cc1ccc(-c2nc3c(c(=O)[nH]c(=O)n3Cc3ccccc3)n2Cc2ccccc2)o1 | . | 9 | -3 | -2 | -12 | -8 | .

(continued)
17) Cc1[nH]c(C)c(C(=O)/C=C/c2ccc([N+](=O)[O-])cc2)c1C
18) COc1ccc(C=CC(=O)c2ccc([N+](=O)[O-])cc2)cc1
19) COCCCC1CCN(Cc2nc(-c3ccccc3)no2)CC1
20) COCCCC1CCN(Cc2nc(Cc3ccccc3Cl)no2)CC1
21) C[C@H]1CCCCO[C@@H](CN(C)Cc2ccc(C(F)(F)F)cc2)[C@@H](C)CN([C@@H](C)CO)C(=O)c2cc(NC(=O)Cc3ccccc3)ccc2O1
22) COCC(=O)Nc1ccc2c(c1)C(=O)N(C)C[C@@H](OC)[C@@H](C)CN(C(=O)c1ccccn1)[C@H](C)CO2
23) CCOC(=O)c1ccc2ncc(C(=O)OCC)c(Nc3ccc(N4CCOCC4)cc3)c2c1

Assay by compound | 17 | 18 | 19 | 20 | 21 | 22 | 23
Yeast UUG start | -14 | -17 | . | . | 10 | -19 | .
MC4R antagonist | 31* | -4 | 30* | 5 | . | . | 48*
ASAP1 GAP inh | -9 | 9 | -5 | 9 | . | . | -14
MC4R ag barr | -2 | 2 | 2 | -2 | . | . | 1
CendR NRP1 mod | 1 | -19 | 8 | -5 | . | . | -8
ARFGAP1 inhibitor | 1 | 3 | 4 | 8 | . | . | 6
U2OS cAMP counter | 11 | . | 0 | . | . | . | 3
MC4R cAMP antag | 31* | . | -7 | . | . | . | 48*

Screens (PubChem)
